# Experimental data taken from PubChem BioAssay AID488961 (Johns Hopkins Ion Channel Center, 2010).
# Protein sequences, listed by entry. Tags and fused reporters are not part of them. Lines headed by an entry give the natural chain unless they say otherwise; changes in a name come on top.
# UniProt Q61143: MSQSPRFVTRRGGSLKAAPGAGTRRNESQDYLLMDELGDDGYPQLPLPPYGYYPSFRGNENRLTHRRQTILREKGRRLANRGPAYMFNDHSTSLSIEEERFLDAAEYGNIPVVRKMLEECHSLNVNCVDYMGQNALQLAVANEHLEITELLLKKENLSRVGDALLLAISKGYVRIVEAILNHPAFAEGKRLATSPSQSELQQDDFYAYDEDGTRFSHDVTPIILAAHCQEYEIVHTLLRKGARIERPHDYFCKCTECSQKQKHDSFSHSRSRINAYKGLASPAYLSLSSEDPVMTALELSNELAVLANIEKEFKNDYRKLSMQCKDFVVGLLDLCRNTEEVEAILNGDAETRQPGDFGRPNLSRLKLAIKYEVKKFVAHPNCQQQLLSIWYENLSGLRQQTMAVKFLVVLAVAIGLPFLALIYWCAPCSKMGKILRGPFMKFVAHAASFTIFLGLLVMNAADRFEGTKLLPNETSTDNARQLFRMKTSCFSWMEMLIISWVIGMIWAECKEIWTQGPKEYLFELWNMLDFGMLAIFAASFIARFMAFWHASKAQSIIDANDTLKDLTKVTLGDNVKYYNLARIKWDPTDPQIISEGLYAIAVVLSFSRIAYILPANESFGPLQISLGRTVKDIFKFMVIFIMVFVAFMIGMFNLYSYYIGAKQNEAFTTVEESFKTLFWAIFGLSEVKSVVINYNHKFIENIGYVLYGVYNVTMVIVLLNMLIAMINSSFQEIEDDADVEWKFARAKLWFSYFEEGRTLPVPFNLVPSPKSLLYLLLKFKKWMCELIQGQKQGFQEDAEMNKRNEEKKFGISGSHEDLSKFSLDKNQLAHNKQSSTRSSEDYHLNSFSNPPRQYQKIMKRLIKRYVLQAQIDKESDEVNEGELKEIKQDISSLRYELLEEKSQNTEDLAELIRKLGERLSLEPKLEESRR
# The list shows a part of the results, in another mix than the full data. Calls of active or inactive are those of the source.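 Rule for the calls: active = ratio signal rise beyond 5 SD above unstimulated control wells' mean, seen in both duplicate runs; inactive = the rest.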
# Biological target: Short transient receptor potential channel 6 (Mus musculus) (UniProt Q61143)
# Test: mouse TRPC6 channel activators, confirmation, HEK293 cells, membrane potential dye, duplicate (AID 488961);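 note: plate controls were buffer EC0 wells for no effect and acetylcholine ECmax response for full effect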
# Conditions: HEK293-TRPC6 membrane potential dye fluorescence, FDSS; at 10 µM; hits give high values
row,Compound,activation
1,CN1CCCC(OC(=O)C(c2ccccc2)c2ccccc2)C1 (stereo not drawn),inactive: 0%
2,O=[N+]([O-])c1ccc(O)c(/C=N/Nc2ccc([N+](=O)[O-])cc2[N+](=O)[O-])c1,inactive: 0%
3,CCC1=CC2Cc3nc4ccc(Cl)cc4c(N)c3C(C1)C2 (stereo not drawn),inactive: 0%
